The source of these data is patent publication US8575186B2, “Epiminocycloalkyl[b] indole derivatives as serotonin sub-type 6 (5-HT6) modulators and uses thereof” (Albany Molecular Research, Inc., priority 2009, dated 2013).

The chains behind the UniProt entries cited, without tags or fusion partners.
UniProt P50406, whole entry: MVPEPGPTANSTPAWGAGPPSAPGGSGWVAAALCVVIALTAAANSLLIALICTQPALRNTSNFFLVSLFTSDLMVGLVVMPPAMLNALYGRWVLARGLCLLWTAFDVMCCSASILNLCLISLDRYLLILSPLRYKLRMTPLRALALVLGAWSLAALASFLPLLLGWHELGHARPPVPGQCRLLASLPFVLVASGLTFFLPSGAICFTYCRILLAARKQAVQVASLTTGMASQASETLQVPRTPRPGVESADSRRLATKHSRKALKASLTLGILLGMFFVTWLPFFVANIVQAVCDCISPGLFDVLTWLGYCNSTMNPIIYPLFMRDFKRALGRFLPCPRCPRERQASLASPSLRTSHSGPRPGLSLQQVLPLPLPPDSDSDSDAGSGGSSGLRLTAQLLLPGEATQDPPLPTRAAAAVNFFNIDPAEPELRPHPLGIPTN

The structures appear in SMILES notation.

In the test the target is human 5-HT6 receptor (Homo sapiens (Human), UniProt P50406). Put plainly: radioligand binding assay (SPA format), [N-methyl-3H]-LSD. Conditions: read-out: human 5HT6 Ki.
With `Cn1c2c(c3cc(S(=O)(=O)n4ccc5cccnc54)ccc31)C1CCC(C2)N1` (stereo not drawn) [Example 106], the Ki (commonly the equilibrium dissociation constant of an inhibitor or competing ligand from its target) was determined as 3.9 nM.

For `Cn1c2c(c3cc(S(=O)(=O)n4ccc5cccnc54)ccc31)C1CCC(C2)N1` (stereo not drawn) [Example 198], the Ki came to 4.7 nM.

Consider `Cn1c2c(c3cc(S(=O)(=O)c4cncc5ccccc45)ccc31)C1CCC(C2)N1` (stereo not drawn) [Example 180], for which the inhibitory constant (Ki) came to 1.9 nM.
